Results reported in patent US4318858A, “Thioethylamide derivatives” (Shionogi & Co., Ltd., priority 1979, dated 1982).

Amino acid sequences for entries named in this document (tags omitted).
UniProt P47747, whole entry: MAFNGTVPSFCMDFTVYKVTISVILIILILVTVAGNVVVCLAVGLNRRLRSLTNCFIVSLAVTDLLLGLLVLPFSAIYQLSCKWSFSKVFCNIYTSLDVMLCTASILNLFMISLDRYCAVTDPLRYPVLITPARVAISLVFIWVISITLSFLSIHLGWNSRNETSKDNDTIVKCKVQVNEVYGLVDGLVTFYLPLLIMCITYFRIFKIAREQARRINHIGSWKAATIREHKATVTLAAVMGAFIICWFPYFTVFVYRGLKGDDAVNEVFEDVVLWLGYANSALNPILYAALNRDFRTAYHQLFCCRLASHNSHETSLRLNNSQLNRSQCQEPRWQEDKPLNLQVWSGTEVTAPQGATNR

Biological target: T1, histamine H2 receptor (Cavia porcellus, UniProt P47747)
T1 construct: guinea pig's enucleated atrium; from tissue; host or cells: guinea pig isolated ("enucleated") atrium
Assay: inhibition of the palpitation number of guinea pig's enucleated atrium (histamine antagonism)
Format: cell-based
Settings: compounds (I) as the oxalates, read-out: pA2 (negative logarithm of the concentration required to shift the dose-response of histamine to the high concentration side by 2-fold) (converted)
From the text: The compounds (I) of the present invention and their pharmaceutically acceptable acid addition salts bind the active site of the histamine H2 receptor in competition with histamine to show a histamine H2 blocking activity.
The pA2 value is defined as a negative logarithm of the concentratio
of the compound (I) required to shift the doseresponse of histamine to th
high concentration side by 2fold. [Ariens, E.J., Molecular Pharmacology,
(1964), Academic Press, New York and London].

`CN/C(=N/CCSCc1nc[nH]c1C)NC#N` [Cimetidine, reference compound] was tested. Which Kb did it give?
The Kb was 234 nM.
